According to ChEMBL document CHEMBL2311488 (Bioorg Med Chem Lett, 2013):

Assays:
in vitro = details: human, liver microsomes
Rattus norvegicus = species on record: Rattus norvegicus; assay: in vitro; details: liver microsomes

CCS(=O)(=O)c1ccc2[nH]c(Oc3ccccc3C(F)(F)F)nc2c1 showed a remaining at 0.5 h (in vitro) of 94.1% and a remaining at 0.5 h (Rattus norvegicus) greater than 99.9%.
In the case of CCS(=O)(=O)c1ccc2[nH]c(Oc3ccc(-c4ccccn4)cc3)nc2c1, the remaining at 0.5 h (in vitro) is reported as 99.1% and the remaining at 0.5 h (Rattus norvegicus) is reported as 99.3%.
